The experiment deals with CXCL12 (SDF-1alpha) (Homo sapiens, UniProt P48061). In words: backscattering interferometry.

By UniProt entry, the sequences of proteins in these tests, tags left out. Residues count along the entry.
UniProt P48061, 22-89: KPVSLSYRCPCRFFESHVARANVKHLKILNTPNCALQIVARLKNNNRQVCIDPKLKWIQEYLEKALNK

In general, Kd refers to the concentration at which binding is half-saturated.

B1: CXCR4 (protein)
chain: MEGISIYTSDNYTEEMGSGDYDSMKEPCFREENANFNKIFLPTIYSIIFLTGIVGNGLVILVMGYQKKLRSMTDKYRLHLSVADLLFVITLPFWAVDAVANWYFGNFLCKAVHVIYTVNLYSSVLILAFISLDRYLAIVHATNSQRPRKLLAEKVVYVGVWIPALLLTIPDFIFANVSEADDRYICDRFYPNDLWVVVFQFQHIMVGLILPGIVILSCYCIIISKLSHSKGHQKRKALKTTVILILAFFACWLPYYIGISIDSFILLEIIKQGCEFENTVHKWISITEALAFFHCCLNPILYAFLGAKFKTSAQHALTSVSRGSSLKILSKGKRGGHSSVSTESESSSFHSS
Molecule B1 came in with a Kd of 0.69 nM.

For the origin of these results see article PMC3246389 (2011).
